# Patent US9289381B2, “Stabilization and storage of biological pharmaceutical compositions” (The University of North Carolina at Charlotte, priority 2009, dated 2016)
# pEC50: −log10 of the molar value.
# Legend:
# [1] = tested on: J774 murine macrophage cell line; assay: Resazurin metabolism (cell viability) assay; type: cell-based, mouse
# [2] = Osmolality by vapor pressure osmometer, osmotic coefficient; type: physicochemical
substance,measurement,setting,value
"Choline O,O′-diethyl dithiophosphate","Log EC50, μM (Dose Response Model)","[1]; J774, 48 h, value is the logarithm of EC50, error of last digit in parentheses, equation 1",3.91 (2) μM
same,pEC50,"[1]; J774, 48 h exposure",2.09
same,osmotic coefficient (φ),"[2]; 100 mM in water, 1 indicates 100% dissociation",0.8
same,"Osmotic Coef., φ in H2O",[2]; 100 mM solutions in deionized water,0.76
